According to patent US10016499B2, “Multifunctional metal nanoparticles having a polydopamine-based surface and methods of making and using the same” (Northwestern University, priority 2011, dated 2018):

Legend:
Assay type in all cases: cell-based
OSCC cells = assay: Long term cellular toxicity (calcein / ethidium bromide fluorescence); settings: OSCC15 cells, NRs 0-95 μM Au, 20-48 hours, no irradiation
Method: For long term toxicity experiments, NRs (0-95 μM Au) were incubated with OSCC cells in 6 and 12 well plates with 1 mL DMEM high glucose media for 20-48 hours. 15 minutes before toxicity quantification, 1 μL 4 mM calcein and 1 μL 4 mM ethedium bromide was added to each well, and cells were incubated for 15 minutes. Fluorescence microscopy was performed on a Leica DM IRB light microscope and a QImaging QI Click camera. Red- and green-channel were acquired for each condition in triplicate, cells were counted manually, and an average percent viable cell percentage was calculated for each condition.

[1] = test system: oral cancer cells (OSCC15); assay: OCT imaging of oral cancer cells with NRs (Example 1); settings: compared to uncoated control cells
Method: Oral squamous cell carcinoma 15 (OSCC15) cells were grown in DMEM containing 10% FBS and 4% gentamycin. To image cells with NRs, 2 mL of trypsin was added to confluent plates of OSCC15 cells, cells were removed, and 400 μL was added to 2 mL of DMEM high glucose media. Cells were centrifuged at 1500 rpm for 5 minutes, supernatant was removed, and 2 mL more media was added. NR suspensions from above were added to the cells and incubated for 30 minutes. Cells were centrifuged at 1500 rpm for 5 minutes, supernatant was removed, 2 mL of media was added, and finally cells were centrifuged and plated onto glass optical microscopy slides.
Bright field images were acquired in a Leica DMRX microscope. Additionally, optical coherence tomography (OCT) was acquired. A visible band Fourier-domain OCT was used in this study. The system adopts a commonpath parallel configuration and the schematic is described in a previous paper. The parallel configuration allowed simultaneous 2D B-scan OCT image acquisition (^˜1 mm cross and ^˜300 μm deep) with 5 fps frame rate. 3-D images were obtained by scanning the sample stage across the B-scan image plane. The axial resolution was ^˜1.5 μm given by the bandwidth (540-650 nm), and the transverse resolution and depth of focus were ^˜6 μm and ^˜200 μm, respectively. […]

[2] = test system: MDA-MB-231 breast cancer cells (high EGFR expression); assay: Quantitative OCT cell imaging (NR binding), MDA-MB-231; settings: MDA-MB-231, 750-850 nm, antibody 5.7 nM ([NR]=14 pM), 1 hour
[3] = test system: low-EGFR expressing MCF7 breast cancer cells; assay: Quantitative OCT cell imaging (NR binding), MCF7; settings: any of the concentrations tested
Method: 5×10^5 oral squamous cell carcinoma 15 (OSCC15), MDA-MB-231 (breast) and MCF7 (breast) cancer cells were grown in tissue culture plates for 3 days. OSCC15 cells were grown in high glucose DMEM (10% FBS, 1% gentamycin), MCF7 cells were grown in high glucose DMEM both with and without insulin (10% FBS, 1% pen/strep), and MDA-MB-231 cells were grown in RPMI-1640 media (10% FBS, 1% pen/strep). 2 mL of trypsin was added to confluent plates of OSCC15 cells, cells were removed, and 400 μL was added to 2 mL of DMEM high glucose media. Cells were centrifuged at 1500 rpm for 5 minutes, supernatant was removed, and 2 mL more media was added. NR suspensions were added to the cells and incubated for 30 minutes. Cells were centrifuged at 1500 rpm for 5 minutes, supernatant was removed, 2 mL of media was added, and finally cells were centrifuged and plated onto glass optical microscopy slides. Bright field images were acquired in a Leica DMRX microscope. […] OCT intensity between 750 and 850 nm localized to individual cells was quantified and plotted as a function of antibody concentration. […]
Inside the spectrometer, the interfered beam was collimated by an f=30 mm lens and directed to a holographic diffraction grating (1200 grooves/mm). […] Cells were identified in the image, and the average pixel intensity per cell between 750-850 nm was quantified to determine NR density.

NR sample conjugated to both bortezomib and ERBITUX® (cetuximab): PD-coated gold nanorods with bortezomib, capped with cetuximab instead of PEG-SH
cellular toxicity (OSCC cells): toxicity was significantly increased

ERBITUX® (cetuximab)-conjugated silver-coated gold nanorods: PD-coated gold nanorods silverized with AgNO3 and conjugated with cetuximab
OCT signal [1]: bright signal

anti-EGFR-PD-NRs: polydopamine-coated gold nanorods functionalized with anti-EGFR antibody (ERBITUX, cetuximab)
increase in NIR light (OCT) intensity localized to cells [2]: 4.1 fold | increase in NIR light (OCT) intensity localized to cells ([2]; listed as Anti-EGFR-PD-NRs): 4 fold | OCT intensity change [3]: No increase in intensity was observed
